DBAASP
Converted amounts (≈) assume the structure as drawn.

Columns and labels:
Assay in all cases: ≥ marks a high value that may be exact or a test limit, other limits are often not marked, values filed in µg/mL are converted to µM
[1] = test system: Erwinia amylovora PMV 6076
[2] = test system: Pseudomonas syringae pv. tomato DC3000
[3] = test system: Xanthomonas campestris pv. Vesicatoria Xcv 206
[4] = test system: Pseudomonas syringae pv. syringae EPS 94
[5] = test system: Xanthomonas campestris pv. Vesicatoria 2133-2
[6] = test system: Staphylococcus aureus ATCC 6538
[7] = test system: Pseudomonas aeruginosa ATCC 9027

CC[C@H](C)[C@H](NC(=O)CNC(=O)[C@H](C)NC(=O)[C@@H]1CCCN1C(=O)CNC(=O)[C@H](C)NC(=O)[C@H](CC(C)C)NC(=O)[C@H](Cc1ccc(O)cc1)NC(=O)[C@H](CCCCN)NC(=O)[C@H](CC(C)C)NC(=O)[C@@H](NC(=O)[C@H](CCCCN)NC(=O)[C@H](CCCCN)NC(=O)[C@H](Cc1ccccc1)NC(=O)[C@H](CC(C)C)NC(=O)[C@H](CCCCN)NC(=O)[C@@H](N)CCCCN)[C@@H](C)CC)C(=O)NCC(=O)N[C@@H](CCCCN)C(=O)N[C@@H](Cc1ccccc1)C(=O)N[C@@H](CC(C)C)C(=O)N[C@@H](Cc1cnc[nH]1)C(=O)N[C@@H](CO)C(=O)N[C@@H](C)C(=O)N[C@@H](CCCCN)C(=O)N[C@@H](CCCCN)C(=O)N[C@@H](CC(=O)O)C(=O)N[C@@H](CCC(=O)O)C(=O)N[C@@H](CC(C)C)C(=O)O [KKLFKKILKYLAGPAGIGKFLHSAKKDEL]
MIC [1]: 3.54 µM (≈ 11.5 µg/mL)
MIC [2]: 3.16 µM (≈ 10.3 µg/mL)
MIC [3]: 1 µM (≈ 3.24 µg/mL)
MIC [4]: 3.54 µM (≈ 11.5 µg/mL)
MIC [5]: 3.54 µM (≈ 11.5 µg/mL)

CC(C)C[C@H](NC(=O)[C@H](C)NC(=O)[C@H](CC(C)C)NC(=O)[C@H](C)NC(=O)[C@H](CC(C)C)NC(=O)[C@H](CCCCN)NC(=O)[C@H](C)NC(=O)[C@H](CC(C)C)NC(=O)[C@H](CCCCN)NC(=O)[C@H](CCCCN)NC(=O)[C@H](C)NC(=O)[C@H](CC(C)C)NC(=O)[C@H](CCCCN)NC(=O)[C@H](CCCCN)NC(=O)[C@H](CC(C)C)NC(=O)[C@H](CCCCN)NC(=O)[C@H](CCCCN)NC(=O)[C@H](C)NC(=O)[C@H](CC(C)C)NC(=O)[C@H](CCCCN)NC(=O)[C@H](CCCCN)NC(=O)[C@H](C)NC(=O)[C@@H](N)Cc1ccccc1)C(=O)O [FAKKLAKKLKKLAKKLAKLALAL]
MIC [6]: 3.94 µM (≈ 10 µg/mL)
MIC [7]: > 78.8 µM
